Results on one compound are retold here after patent US20250243180A1, “TARGETED PROTEIN DEGRADATION” (Monte Rosa Therapeutics AG, priority 2023, published 2025).

By UniProt entry, the sequences of proteins in these tests, tags left out. Residues count along the entry.
UniProt Q8TDX7, whole entry: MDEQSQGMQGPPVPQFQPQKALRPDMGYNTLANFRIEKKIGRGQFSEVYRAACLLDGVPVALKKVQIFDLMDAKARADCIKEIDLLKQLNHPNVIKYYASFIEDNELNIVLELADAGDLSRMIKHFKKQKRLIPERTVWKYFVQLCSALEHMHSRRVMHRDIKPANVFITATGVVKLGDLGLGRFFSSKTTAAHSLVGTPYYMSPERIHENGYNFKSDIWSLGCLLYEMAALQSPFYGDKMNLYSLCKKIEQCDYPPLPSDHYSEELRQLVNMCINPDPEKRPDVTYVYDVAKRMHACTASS
UniProt Q96SW2, whole entry: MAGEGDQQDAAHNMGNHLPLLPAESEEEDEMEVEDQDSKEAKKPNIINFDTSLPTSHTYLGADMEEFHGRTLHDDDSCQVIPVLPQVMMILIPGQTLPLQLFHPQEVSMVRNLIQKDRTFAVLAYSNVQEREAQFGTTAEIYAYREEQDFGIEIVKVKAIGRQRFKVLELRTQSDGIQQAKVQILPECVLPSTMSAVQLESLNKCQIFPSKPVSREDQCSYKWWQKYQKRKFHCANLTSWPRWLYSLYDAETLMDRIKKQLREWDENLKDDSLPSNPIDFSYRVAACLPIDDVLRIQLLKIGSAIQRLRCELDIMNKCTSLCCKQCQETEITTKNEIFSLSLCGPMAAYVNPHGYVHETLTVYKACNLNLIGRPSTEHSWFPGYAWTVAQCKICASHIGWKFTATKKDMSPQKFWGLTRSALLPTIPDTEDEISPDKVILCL
UniProt Q16531, 2-1140 partner limits assumed: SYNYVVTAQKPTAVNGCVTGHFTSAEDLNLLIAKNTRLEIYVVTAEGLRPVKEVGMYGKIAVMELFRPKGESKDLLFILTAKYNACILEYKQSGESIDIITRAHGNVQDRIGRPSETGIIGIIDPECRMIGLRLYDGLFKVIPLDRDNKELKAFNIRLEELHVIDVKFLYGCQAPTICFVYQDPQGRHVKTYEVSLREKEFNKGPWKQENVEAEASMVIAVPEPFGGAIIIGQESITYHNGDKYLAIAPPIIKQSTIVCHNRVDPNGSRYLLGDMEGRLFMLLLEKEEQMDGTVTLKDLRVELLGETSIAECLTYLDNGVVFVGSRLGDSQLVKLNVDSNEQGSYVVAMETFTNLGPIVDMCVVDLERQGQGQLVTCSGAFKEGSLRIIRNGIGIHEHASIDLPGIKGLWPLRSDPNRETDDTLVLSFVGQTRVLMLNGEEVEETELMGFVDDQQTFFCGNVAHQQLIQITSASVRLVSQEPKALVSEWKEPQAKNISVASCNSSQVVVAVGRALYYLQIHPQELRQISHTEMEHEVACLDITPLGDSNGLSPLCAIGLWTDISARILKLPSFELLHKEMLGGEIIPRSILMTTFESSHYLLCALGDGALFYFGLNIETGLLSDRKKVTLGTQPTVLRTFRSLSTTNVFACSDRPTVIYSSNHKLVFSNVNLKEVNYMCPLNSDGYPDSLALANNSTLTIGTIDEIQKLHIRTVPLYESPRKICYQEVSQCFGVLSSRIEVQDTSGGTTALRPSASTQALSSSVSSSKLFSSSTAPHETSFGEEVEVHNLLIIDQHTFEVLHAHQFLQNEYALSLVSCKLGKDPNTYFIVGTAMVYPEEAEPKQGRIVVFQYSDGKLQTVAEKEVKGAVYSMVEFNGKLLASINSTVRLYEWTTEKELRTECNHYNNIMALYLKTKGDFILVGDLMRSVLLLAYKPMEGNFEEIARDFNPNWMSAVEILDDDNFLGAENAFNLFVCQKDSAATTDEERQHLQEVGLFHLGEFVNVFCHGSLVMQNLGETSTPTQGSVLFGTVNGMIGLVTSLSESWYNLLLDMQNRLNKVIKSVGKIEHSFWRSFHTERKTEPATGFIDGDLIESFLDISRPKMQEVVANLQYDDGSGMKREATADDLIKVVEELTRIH
UniProt Q16531, whole entry partner: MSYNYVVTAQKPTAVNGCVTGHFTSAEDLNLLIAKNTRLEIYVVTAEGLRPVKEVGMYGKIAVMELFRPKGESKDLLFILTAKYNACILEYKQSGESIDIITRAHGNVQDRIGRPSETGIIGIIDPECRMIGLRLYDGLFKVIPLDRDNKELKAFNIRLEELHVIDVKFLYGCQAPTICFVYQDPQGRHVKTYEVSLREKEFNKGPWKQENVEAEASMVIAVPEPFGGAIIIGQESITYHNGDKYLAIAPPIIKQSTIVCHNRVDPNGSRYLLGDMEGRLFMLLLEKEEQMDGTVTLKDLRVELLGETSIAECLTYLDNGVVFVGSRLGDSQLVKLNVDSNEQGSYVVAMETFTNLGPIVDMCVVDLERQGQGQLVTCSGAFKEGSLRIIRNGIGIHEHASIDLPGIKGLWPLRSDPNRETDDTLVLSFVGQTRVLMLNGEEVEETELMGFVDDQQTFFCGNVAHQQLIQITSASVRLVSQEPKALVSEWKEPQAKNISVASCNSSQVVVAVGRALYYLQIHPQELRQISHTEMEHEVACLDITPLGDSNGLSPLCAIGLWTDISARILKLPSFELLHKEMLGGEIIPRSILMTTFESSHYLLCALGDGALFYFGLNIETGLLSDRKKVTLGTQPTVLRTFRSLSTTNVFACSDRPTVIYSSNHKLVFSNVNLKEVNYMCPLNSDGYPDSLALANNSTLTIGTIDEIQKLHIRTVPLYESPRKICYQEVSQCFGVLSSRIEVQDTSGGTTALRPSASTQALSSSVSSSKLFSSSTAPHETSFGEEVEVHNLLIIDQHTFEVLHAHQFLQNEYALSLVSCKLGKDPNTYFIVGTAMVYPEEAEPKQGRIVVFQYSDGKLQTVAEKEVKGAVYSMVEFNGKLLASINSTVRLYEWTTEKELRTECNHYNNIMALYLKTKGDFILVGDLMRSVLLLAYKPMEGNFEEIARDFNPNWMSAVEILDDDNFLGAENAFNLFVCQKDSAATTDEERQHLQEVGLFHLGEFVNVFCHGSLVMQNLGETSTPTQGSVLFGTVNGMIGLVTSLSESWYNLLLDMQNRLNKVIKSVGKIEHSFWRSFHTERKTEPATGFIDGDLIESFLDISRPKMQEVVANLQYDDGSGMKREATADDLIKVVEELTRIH

pEC50: −log10 of the molar value. Where two headings read alike, the source gives them in different places. Where only a bound is given, the exact number is not on record here.

One experiment has as its target NEK7 (Homo sapiens (Human), UniProt Q8TDX7+Q96SW2). Briefly: NEK7 NanoBiT degradation assay in Cal51 NEK7 NanoBiT cell line. The settings on record: Cal51 NEK7 NanoBiT cells, 24 hours.
In the next experiment the target is CRBN-DDB1 (Homo sapiens (Human), UniProt Q96SW2). Briefly: Compound binding to CRBN by HTRF assay. To be noted: read-out: HTRF CRBN EC50.

As a reminder, the DC50 is the midpoint of the concentration-degradation curve. The pEC50 is the negative decadic logarithm of the EC50, by convention in mol/L. `CC(C)(O)c1ccc(C(C)(C)C(=O)NCc2cc(Cl)c(C3CCC(=O)NC3=O)c(Cl)c2)nn1` (stereo not drawn) [Compound 203]: the “NEK7 NanoBiT Dmax” value on NEK7 came out at 68%. For the same compound, the “NanoBiT Dmax” value at NEK7 (NEK7 degradation) is “B (B represents a DMAX value>50% and ≤75%)”. For the same compound, the DC50 on NEK7 (read-out: NEK7 NanoBiT DC50) was 87 nM; on NEK7 (read-out: NanoBiT DC50, NEK7 degradation) it was under 100 nM. Further, the pEC50 at CRBN-DDB1 is 6.77; at CRBN-DDB1 (HTRF class, Cereblon binding), 6.00 to 7.00.
